Only a part is listed here, and it is no random draw. Active and inactive are the calls of the source. Cut-off read from the data, not from the text of the source: active = activation above about 50%; inconclusive = mostly about 30% to 49%; inactive = weaker than that.

By UniProt entry, the sequences of proteins in these tests, tags left out.
UniProt Q9GZU1, whole entry: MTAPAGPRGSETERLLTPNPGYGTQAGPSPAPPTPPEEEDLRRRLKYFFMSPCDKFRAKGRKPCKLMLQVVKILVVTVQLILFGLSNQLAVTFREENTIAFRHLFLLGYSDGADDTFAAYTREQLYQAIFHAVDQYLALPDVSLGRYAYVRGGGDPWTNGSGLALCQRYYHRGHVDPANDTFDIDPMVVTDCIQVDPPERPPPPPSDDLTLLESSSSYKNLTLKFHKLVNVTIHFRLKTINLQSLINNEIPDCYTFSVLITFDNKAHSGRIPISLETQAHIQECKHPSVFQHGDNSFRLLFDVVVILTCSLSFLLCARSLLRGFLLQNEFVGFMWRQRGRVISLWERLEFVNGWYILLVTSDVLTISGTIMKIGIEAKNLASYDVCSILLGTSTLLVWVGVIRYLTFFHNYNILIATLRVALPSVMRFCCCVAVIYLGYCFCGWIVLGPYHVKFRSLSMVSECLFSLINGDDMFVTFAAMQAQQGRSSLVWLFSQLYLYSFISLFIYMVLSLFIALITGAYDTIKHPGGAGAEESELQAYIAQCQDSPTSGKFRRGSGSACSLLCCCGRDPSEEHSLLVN

The assay has as its target Mucolipin-1 (Homo sapiens) (UniProt Q9GZU1). The assay can be described thus: qHTS for Agonists of the Human Mucolipin Transient Receptor Potential 1 (TRPML1). Note: 0% is about no effect. To be noted: TRPML1-expressing cells, Ca2+ dye fluorescence, FDSS; stronger effect = higher value. From the text:
Mutations of human Mucolipin transient receptor potential 1 (TRPML1) cause type IV mucolipidosis (ML4), a devastating neurodegenerative disease in young children. […] Currently, there is no treatment for ML4. […] Under physiological conditions, TRPMLs regulate membrane trafficking by transducing information about PI(3,5)P2 levels into changes in juxtaorganellar Ca2+, thereby triggering membrane fusion/fission events in the late endocytic pathways (endolysosomal trafficking). In addition, TRPML1 mediates release of Fe2+ from late endosomes and lysosomes, which is essential for cellular iron metabolism. Thus, impaired ion (Ca2+ and Fe2+) homeostasis underlies lysosomal dysfunction and ML4 phenotypes. In ML4 cells, the problem is twofold. First, defective Ca2+-dependent membrane trafficking due to TRPML1-deficiency causes accumulation of lipids and other bio-materials in the lysosome. […]
TRPML1-DL cells are dissociated from flasks, counted and, brought up to a density of 500,000 cells per mL of media containing a 1X Tet inducer. […] The assay plate is read on the FDSS using the following protocol: 10 second baseline read, 23nL of compounds and controls are added using 1536 pintool, agonist read for 110 seconds, 1 uL EC80 addition (4uM final 54-4 diluted in media), antagonist read for 110 seconds.
Regarding `CCC(=O)N(c1ccccc1)C1(COC)CCN(CCc2cccs2)CC1`, the activation was inactive: -0.284%.
In the case of `CCC(=O)N(c1ccccc1)C1(COC)CCN(CCn2nnn(CC)c2=O)CC1`, the activation was inactive: -0.536%.

Source of the values: PubChem BioAssay AID624414 (National Center for Advancing Translational Sciences (NCATS), 2012).
